{"source": "patent US20100055078A1", "about": "“METHODS OF MAKING A TRANSPLANTABLE BONE REPAIR SYSTEM USING MULTIPOTENT STEM CELLS” (The Government of the U.S.A, as represented by the …, priority 2008, published 2010)", "tested_on": "MC3T3-E1 cells", "test": "qRT-PCR gene expression in mineralizing cells treated with growth factor", "assay_type": "cell-based", "procedure": "Cell Culture: MC3T3-E1 cells were grown and mineralized essentially as described in Example 1. Mineralizing MC3T3-E1 cells were treated with FGF-2 (5 ng/ml) or BMP-2 (100 ng/ml) for 24 hours. hMSC cells were expanded with 5 ng/ml FGF-2 for 3 to 10 days, then treated with DM for 3 or 10 days.\nRNA Isolation: RNA was isolated using the RNeasy™ Mini kit (Qiagen, Valencia, Calif.) or TriReagent™ (Sigma-Aldrich, St. Louis, Mo.) according to the manufacturer's protocol.\nReverse Transcription: 1.5 μg of RNA was added to 30 μl reverse transcriptase (RT) reaction buffer containing 5 mM MgCl2, 10 mM Tris-HCl (pH 8.3), 50 mM KCl, 1 mM dNTPs, 2.5 μM oligo d(T) primer, 2.5 U/μl of MuLV RT, and 1 U/μl of RNase inhibitor. The RT reaction was incubated at room temperature for 10 min, 42° C. for 30 min, inactivated at 99° C. for 5 min, and cooled at 5° C. for 5 min.\nReal-time Quantitative RT-PCR Reaction (qRT-PCR): 2 μl of cDNA from the RT reaction was added to 20 μl real-time quantitative polymerase chain reaction (qRT-PCR) mixture containing 10 μl of 2×SYBR® Green PCR Master Mix (Applied Biosystems, Foster City, Calif.) and 12 pmol oligonucleotide primers. PCR was carried out in a Bio-Rad MY iQ® Single-Color Real-Time PCR Detection System (Bio-Rad, Hercules, Calif.) at 50° C. for 2 min, 95° C. for 10 min to activate the Taq polymerase, followed by 50 amplification cycles, consisting of denaturation at 95° C. for 1 min 40 sec, annealing at 63° C. for 1 min 10 sec, and elongation at 72° C. for 1 min 40 sec. Fluorescence was measured and used for quantitative purposes. At the end of the amplification period, melting curve analysis was performed to confirm the specificity of the amplicon. RNA samples were normalized to a cyclophilin (CPHI) internal standard. Relative quantification of gene expression was calculated by using the 2^−(Ct gene T−Ct CPHI T)−(Ct gene 0 hr−Ct CPHI 0 hr) equation, where “Ct gene T” represents the calculated threshold cycle (Ct) of a time point of each sample other than 0 hr, or each treatment other than control. Relative gene abundance is calculated using 2^(Ct gene T−Ct CPHI T), resulting numbers were then multiplied by 10,000 for better graphical presentation. Primer sequences were previously described (Hughes-Fulford and Gilbertson, FASEB J. 13:S121-127, 1999; Hughes-Fulford et al., Gravit. Space Biol. Bull. 11:51-60, 1998; Tjandrawinata and Hughes-Fulford, Adv. Exp. Med. Biol. 407:163-170, 1997; Hughes-Fulford, Adv. Exp. Med. Biol. 400A:269-278, 1997; Hughes-Fulford and Lewis, Exp. Cell Res. 224:103-109, 1996). All data derived using qRT-PCR was from multiple experiments with triplicate independent biological samples.", "key": {"[1]": {"conditions": "24 hours, FGF-2 5 ng/ml or BMP-2 100 ng/ml, corrected to cyclophilin"}}, "data": [{"substance": "bone morphogenetic protein-2 [BMP-2]", "values": [{"measurement": "Relative abundance of gene expression: ALP", "setting": "[1]", "result": 91.77}, {"measurement": "Relative abundance of gene expression: BMP-2", "setting": "[1]", "result": 0.38}, {"measurement": "Relative abundance of gene expression: Collagen Type I", "setting": "[1]", "result": "*170243.43"}, {"measurement": "Relative abundance of gene expression: Fibronectin", "setting": "[1]", "result": "**239750.67"}, {"measurement": "Relative abundance of gene expression: IGF-1", "setting": "[1]", "result": 4193.34}, {"measurement": "Relative abundance of gene expression: MMP3", "setting": "[1]", "result": 0.12}, {"measurement": "Relative abundance of gene expression: Noggin", "setting": "[1]", "result": 2.41}, {"measurement": "Relative abundance of gene expression: OC", "setting": "[1]", "result": "*34.04"}, {"measurement": "Relative abundance of gene expression: RUNX2", "setting": "[1]", "result": 1043.65}, {"measurement": "Relative abundance of gene expression: TGFβ", "setting": "[1]", "result": "*185.20"}, {"measurement": "Relative abundance of gene expression: VEGFA", "setting": "[1]", "result": 537.13}, {"measurement": "expression of genes associated with angiogenesis and migration e.g. vegf and mmp3, in words", "setting": "after 24 hours of treatment", "result": "little or no changes"}, {"measurement": "expression of genes associated with mineralization including col1a1, fn, noggin and oc, in words", "setting": "after 24 hours of treatment", "result": "significant increases"}, {"measurement": "mineralizing RNA profile of igf-1, alp and bmp-2, in words", "setting": "after 24 hours of treatment", "result": "maintained"}]}]}
